This passage reports inhibition results from PubChem BioAssay AID2806 (Sanford-Burnham Center for Chemical Genomics, 2010).

One may read the inhibition as the change of the read-out against control, counted positive when it falls.

The list shows a part of the results, in another mix than the full data. Some of these compounds have results that are not shown, active ones among them. Active and inactive are the calls of the source.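 Rule for the calls: active = inhibition of at least 40% at 10 µM in the primary screen; inactive = the rest.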

This assay concerns intestinal alkaline phosphatase [Mus musculus]. The experiment in a line: mouse intestinal phosphatase enzyme inhibition – biochemical, luminescence, uHTS, primary screen (AID 2806).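 Note: plate controls were DMSO with enzyme for no effect and no enzyme wells for full effect.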 The following applies: purified mouse IAP, CDP-Star luminescence, 30 min; at 10 µM; active compounds read high.
With `COc1cc(C(=O)NCC2(N(C)C)CCCCC2)c([N+](=O)[O-])cc1OC`, the inhibition is inactive: -3.7%. For the molecule `CN(C)C1(CNC(=O)c2ccc(Br)cc2)CCCCC1`, the inhibition was inactive: -12.1%. The value for `O=C(NCC1(N2CCCCC2)CCCCC1)c1cccc(Cl)c1` was inactive: -1%. The figure for `COc1cccc(C(=O)NCC2(N3CCCCC3)CCCCC2)c1` is inactive: 6.6%; for `COc1ccc(Cl)cc1C(=O)NCC1(N(C)C)CCCCC1` it is inactive: -3.7%. Turning to `O=C(OC1CN2CCC1CC2)C(CO)(c1ccccc1)c1ccccc1` (centres undefined), the inhibition was inactive: -3.7%. Regarding `CN(C)c1cccc(C(=O)NCC2(N(C)C)CCCCC2)c1`, the inhibition was inactive: 4%. As for `CC(C)Oc1ccc(C(=O)NCC2(N(C)C)CCCCC2)cc1`, the inhibition was inactive: -1.2%. In the case of `COc1ccc(Br)c(C(=O)NCC2(N3CCCCC3)CCCCC2)c1`, the inhibition is inactive: 4.4%.

For the molecule `CN1[C@@H]2CC[C@H]1CC(OC(=O)C(O)(c1ccccc1)c1ccccc1)C2` (some centres undefined), the inhibition was inactive: -5.3%. The value for `O=C(NCC1(N2CCCCC2)CCCCC1)c1cc([N+](=O)[O-])ccc1Cl` was inactive: 4.1%. In the case of `Cc1ccc(C(=O)NCC2(N3CCCCC3)CCCCC2)cc1`, the inhibition is inactive: -0.5%.

Take `CC(C)N1C(=O)CC2(CCN(CCOC(=O)C(O)(c3ccccc3)c3ccccc3)CC2)C1=O`: the inhibition is inactive: -2.2%.

`CCN(CC)CC(C)C(C)OC(=O)C(O)(c1ccccc1)c1ccccc1` (centres undefined): the inhibition is inactive: 1.8%. With `COc1cc(SC)ccc1C(=O)NCC1(N(C)C)CCCCC1`, the inhibition is inactive: -4%. For the molecule `Cc1ccccc1C(=O)NCC1(N2CCCCC2)CCCCC1`, the inhibition is inactive: -0.5%.

On to `CN(C)c1ccc(C(=O)NCC2(N(C)C)CCCCC2)cc1`, for which the inhibition is inactive: -2.7%.

For `CN(C)C1CCCC1OC(=O)C(O)(c1ccccc1)c1ccccc1` (centres undefined), the inhibition is inactive: -7%. The value for `CCN1CCCC(OC(=O)C2(O)c3ccccc3C=Cc3ccccc32)C1` (centres undefined) was inactive: 0%; that for `Cc1cc(C(=O)NCC2(N3CCCCC3)CCCCC2)ccc1[N+](=O)[O-]` was inactive: -6.2%; that for `O=C(NCC1(N2CCCCC2)CCCCC1)c1cccc(Br)c1` was inactive: -6.7%. The value for `COc1ccc(C(=O)NCC2(N(C)C)CCCCC2)cc1` was inactive: -2.7%. For the molecule `C=CCN1CCN(CCOC(=O)C(O)(c2ccccc2)c2ccccc2)CC1`, the inhibition was inactive: -5.9%.

With `O=C(NCC1(N2CCCCC2)CCCCC1)c1cc(F)c(F)cc1Cl`, the inhibition was inactive: -0.2%.
